Measured values from ChEMBL document CHEMBL4732138, “Evaluation of the Structure-Activity Relationship of Microtubule-Targeting 1,2,4-Triazolo[1,5-a]pyrimidines Identifies New Candidates for Neurodegenerative Tauopathies” (J Med Chem, 2021).

By UniProt entry, the sequences of proteins in these tests, tags left out. Where a name states a change or a piece, a line headed by the entry shows the natural chain unless it says otherwise.
UniProt P68371: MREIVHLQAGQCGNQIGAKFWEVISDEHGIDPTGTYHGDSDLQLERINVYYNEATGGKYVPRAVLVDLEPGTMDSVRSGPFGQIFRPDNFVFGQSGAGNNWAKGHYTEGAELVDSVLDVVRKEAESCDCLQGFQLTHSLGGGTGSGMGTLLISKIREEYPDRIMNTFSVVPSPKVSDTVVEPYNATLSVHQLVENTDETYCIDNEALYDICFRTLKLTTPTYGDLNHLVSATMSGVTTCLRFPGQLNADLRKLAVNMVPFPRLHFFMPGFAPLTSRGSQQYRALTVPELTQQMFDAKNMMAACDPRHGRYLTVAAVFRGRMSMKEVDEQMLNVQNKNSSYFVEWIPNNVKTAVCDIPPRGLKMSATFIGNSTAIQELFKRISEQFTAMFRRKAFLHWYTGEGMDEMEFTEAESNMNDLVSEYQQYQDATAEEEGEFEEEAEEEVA
UniProt Q9H4B7: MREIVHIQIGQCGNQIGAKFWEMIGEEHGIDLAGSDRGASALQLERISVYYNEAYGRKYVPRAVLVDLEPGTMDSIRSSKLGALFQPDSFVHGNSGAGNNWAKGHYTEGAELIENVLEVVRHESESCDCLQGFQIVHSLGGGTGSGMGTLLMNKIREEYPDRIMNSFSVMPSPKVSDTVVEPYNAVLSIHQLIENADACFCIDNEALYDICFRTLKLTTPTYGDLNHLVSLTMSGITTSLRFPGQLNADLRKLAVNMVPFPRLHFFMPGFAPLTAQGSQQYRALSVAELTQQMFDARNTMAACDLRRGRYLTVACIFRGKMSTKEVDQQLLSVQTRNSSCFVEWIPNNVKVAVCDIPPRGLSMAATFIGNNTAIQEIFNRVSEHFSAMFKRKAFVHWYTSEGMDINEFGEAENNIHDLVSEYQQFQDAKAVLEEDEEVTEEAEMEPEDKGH
UniProt P0DPH7: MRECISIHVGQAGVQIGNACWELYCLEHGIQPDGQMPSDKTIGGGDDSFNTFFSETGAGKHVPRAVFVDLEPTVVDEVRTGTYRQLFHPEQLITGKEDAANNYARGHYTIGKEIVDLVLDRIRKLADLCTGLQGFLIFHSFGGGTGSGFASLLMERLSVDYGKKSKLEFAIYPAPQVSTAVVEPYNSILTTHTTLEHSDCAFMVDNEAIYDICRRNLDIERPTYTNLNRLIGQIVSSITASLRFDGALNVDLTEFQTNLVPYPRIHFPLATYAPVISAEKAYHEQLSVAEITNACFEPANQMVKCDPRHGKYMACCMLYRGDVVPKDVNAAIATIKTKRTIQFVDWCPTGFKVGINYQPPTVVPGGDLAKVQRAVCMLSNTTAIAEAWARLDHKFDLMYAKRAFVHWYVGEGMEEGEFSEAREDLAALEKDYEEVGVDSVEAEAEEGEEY
UniProt P68366: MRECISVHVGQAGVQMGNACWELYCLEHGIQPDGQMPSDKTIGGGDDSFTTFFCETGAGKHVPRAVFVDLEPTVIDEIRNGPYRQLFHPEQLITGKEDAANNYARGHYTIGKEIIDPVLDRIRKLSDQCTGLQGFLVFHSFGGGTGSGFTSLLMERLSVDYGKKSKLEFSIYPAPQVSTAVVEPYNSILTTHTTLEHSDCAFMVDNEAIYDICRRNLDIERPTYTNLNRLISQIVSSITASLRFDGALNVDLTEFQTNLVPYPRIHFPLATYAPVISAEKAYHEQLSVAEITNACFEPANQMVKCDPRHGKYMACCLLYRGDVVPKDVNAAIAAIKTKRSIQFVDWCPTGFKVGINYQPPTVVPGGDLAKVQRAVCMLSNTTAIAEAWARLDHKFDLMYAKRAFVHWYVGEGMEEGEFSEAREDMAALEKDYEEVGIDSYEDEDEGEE
UniProt Q13509: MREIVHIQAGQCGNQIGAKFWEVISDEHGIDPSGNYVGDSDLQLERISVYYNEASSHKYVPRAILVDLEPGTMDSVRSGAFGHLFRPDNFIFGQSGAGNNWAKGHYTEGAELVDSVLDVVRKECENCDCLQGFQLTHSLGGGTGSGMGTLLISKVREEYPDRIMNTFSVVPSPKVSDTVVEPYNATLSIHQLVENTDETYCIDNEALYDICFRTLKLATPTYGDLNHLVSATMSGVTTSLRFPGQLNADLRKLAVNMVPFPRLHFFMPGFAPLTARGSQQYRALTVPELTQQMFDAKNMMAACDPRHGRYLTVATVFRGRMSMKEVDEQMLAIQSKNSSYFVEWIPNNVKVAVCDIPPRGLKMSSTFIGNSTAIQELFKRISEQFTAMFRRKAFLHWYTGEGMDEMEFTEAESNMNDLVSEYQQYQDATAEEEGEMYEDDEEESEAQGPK
UniProt Q71U36: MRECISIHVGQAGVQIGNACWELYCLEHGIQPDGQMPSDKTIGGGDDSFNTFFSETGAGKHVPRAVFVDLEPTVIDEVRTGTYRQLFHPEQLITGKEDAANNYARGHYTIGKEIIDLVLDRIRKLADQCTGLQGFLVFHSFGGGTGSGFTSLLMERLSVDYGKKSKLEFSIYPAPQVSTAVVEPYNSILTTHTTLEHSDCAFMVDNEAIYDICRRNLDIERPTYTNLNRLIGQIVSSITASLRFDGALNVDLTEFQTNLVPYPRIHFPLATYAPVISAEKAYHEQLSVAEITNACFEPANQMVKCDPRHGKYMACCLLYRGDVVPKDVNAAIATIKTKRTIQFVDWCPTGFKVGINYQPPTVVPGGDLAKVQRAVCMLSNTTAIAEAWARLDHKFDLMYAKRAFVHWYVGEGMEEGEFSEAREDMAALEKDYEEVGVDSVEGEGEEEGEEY
UniProt Q3ZCM7: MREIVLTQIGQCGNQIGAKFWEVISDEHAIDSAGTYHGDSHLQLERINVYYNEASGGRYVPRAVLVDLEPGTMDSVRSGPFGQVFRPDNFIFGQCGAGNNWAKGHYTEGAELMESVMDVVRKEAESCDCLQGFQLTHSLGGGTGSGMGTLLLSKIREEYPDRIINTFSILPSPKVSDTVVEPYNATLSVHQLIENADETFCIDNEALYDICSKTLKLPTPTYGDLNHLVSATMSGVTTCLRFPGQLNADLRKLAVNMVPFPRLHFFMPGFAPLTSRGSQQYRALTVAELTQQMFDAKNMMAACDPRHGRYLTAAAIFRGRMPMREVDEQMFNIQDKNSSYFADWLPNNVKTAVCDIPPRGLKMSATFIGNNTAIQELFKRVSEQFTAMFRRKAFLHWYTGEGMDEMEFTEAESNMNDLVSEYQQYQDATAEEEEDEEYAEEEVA
UniProt P07437: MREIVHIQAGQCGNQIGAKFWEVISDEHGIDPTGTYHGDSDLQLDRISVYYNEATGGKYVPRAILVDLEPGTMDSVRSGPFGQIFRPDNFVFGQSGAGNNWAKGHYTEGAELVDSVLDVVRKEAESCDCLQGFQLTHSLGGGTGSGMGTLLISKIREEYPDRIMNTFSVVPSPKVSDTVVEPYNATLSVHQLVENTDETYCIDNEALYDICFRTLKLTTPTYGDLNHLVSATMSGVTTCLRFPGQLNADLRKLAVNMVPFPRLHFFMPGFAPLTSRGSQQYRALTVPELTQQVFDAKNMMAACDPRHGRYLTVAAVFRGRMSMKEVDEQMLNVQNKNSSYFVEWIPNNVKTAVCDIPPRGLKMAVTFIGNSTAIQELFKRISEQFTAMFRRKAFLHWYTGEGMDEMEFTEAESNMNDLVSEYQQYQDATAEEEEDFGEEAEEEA
UniProt P68363: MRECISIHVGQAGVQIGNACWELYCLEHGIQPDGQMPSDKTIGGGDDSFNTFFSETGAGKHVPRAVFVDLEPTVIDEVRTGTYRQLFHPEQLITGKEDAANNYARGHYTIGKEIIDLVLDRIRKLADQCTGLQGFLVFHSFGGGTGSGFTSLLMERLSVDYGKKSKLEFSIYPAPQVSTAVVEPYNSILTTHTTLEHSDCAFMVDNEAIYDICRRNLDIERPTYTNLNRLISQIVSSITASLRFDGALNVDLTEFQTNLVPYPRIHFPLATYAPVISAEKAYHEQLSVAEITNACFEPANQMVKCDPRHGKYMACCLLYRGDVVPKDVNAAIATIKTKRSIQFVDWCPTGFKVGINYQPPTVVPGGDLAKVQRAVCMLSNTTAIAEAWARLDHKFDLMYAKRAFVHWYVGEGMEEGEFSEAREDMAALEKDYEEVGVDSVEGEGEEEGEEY
UniProt Q9BQE3: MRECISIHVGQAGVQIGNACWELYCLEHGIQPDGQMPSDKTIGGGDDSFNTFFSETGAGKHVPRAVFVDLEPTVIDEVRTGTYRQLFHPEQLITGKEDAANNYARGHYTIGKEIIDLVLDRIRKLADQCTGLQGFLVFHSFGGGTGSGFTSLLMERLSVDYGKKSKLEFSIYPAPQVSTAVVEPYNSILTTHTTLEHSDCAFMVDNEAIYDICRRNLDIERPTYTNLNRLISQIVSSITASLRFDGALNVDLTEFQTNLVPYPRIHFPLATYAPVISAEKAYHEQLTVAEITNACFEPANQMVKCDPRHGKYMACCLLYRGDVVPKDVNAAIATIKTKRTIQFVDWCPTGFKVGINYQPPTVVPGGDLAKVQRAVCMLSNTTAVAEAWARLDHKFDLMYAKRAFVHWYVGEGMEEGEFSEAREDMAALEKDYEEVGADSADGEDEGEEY
UniProt Q6PEY2: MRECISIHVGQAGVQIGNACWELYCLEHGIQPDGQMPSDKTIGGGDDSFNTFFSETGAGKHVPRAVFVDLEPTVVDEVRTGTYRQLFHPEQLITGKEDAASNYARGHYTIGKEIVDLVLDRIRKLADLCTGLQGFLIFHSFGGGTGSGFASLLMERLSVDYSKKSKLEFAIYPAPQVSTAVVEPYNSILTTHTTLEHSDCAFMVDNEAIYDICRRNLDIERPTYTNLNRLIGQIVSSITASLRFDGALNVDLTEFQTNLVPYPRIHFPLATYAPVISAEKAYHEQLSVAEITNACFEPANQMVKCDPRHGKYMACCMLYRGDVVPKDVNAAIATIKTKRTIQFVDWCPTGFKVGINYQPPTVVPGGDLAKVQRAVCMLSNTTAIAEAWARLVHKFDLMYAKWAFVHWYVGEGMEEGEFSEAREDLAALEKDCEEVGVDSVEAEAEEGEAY
UniProt Q13885: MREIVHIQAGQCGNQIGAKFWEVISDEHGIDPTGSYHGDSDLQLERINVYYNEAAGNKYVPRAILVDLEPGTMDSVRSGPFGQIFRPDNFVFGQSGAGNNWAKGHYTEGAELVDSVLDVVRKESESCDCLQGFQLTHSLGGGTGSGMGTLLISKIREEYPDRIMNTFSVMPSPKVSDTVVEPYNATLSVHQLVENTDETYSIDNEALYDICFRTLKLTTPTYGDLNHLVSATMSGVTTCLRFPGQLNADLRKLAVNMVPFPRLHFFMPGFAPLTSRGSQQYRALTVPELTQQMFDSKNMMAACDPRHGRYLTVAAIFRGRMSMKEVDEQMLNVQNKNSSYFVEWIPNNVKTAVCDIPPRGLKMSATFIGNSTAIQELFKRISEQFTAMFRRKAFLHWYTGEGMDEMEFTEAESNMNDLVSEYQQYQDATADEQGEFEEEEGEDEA
UniProt Q9BVA1: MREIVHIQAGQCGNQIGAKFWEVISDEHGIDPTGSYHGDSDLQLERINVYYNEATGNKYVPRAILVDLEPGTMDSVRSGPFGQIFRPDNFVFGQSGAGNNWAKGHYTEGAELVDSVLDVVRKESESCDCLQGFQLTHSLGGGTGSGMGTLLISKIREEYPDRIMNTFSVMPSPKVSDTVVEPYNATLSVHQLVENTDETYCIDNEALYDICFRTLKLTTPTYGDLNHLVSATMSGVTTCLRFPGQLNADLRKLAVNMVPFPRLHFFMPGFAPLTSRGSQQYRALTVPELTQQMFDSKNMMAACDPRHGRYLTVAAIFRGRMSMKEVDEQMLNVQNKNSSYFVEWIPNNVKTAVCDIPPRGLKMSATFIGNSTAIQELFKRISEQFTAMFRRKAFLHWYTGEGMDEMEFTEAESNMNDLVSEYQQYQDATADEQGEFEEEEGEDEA
UniProt Q9BUF5: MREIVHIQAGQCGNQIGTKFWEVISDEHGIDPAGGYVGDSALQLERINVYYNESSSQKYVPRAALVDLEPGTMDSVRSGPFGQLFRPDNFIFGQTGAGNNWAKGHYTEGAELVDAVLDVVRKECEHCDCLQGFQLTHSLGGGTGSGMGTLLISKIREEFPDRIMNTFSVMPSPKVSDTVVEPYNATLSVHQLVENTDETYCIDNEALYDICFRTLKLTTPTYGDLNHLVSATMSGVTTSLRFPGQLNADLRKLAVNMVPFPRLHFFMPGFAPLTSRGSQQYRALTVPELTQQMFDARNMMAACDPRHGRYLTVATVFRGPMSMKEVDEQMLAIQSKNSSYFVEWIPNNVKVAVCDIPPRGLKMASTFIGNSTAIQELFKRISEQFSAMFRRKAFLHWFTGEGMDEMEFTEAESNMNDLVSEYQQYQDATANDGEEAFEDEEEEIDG

Target: Tubulin (Homo sapiens) (UniProt P68371+Q9H4B7+P0DPH7+P68366+Q13509+Q71U36+P04350+Q3ZCM7+P07437+P68363+Q9BQE3+Q6PEY2+Q13885+Q9BVA1+Q9BUF5)
Assay: Stabilization of microtubules in human QBI293 cells assessed as decrease in alpha-tubulin levels at 1 to 10 uM after 4 hrs by ELISA relative to control
Type: cell-based
Design: scale not given: the % may be the effect or the level left
Conditions: dose 1-10 µM
How it was run: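 QBI293 cells are grown in DMEM with 10% FBS, 2 mM L-glutamine and penicillin/streptomycin, plated at 6 × 10^5 cells/well and incubated overnight. Compound (1 and 10 µM) or DMSO vehicle is given for 4 h. Acetyl- and total α-tubulin in whole-cell extract supernatants are measured by ELISA against standard curves, with protein by BCA. Values are fold-change over DMSO; AcTub is also given relative to 100 nM cevipabulin positive control. Significance is by one-way ANOVA.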

| SMILES | Activity [%] |
| --- | --- |
| C[C@H](Nc1c(-c2c(F)cc(OCCCN(C)C)cc2F)c(Cl)nc2ncnn12)C(F)(F)F | > 15 |
| C[C@H](Nc1c(-c2c(F)cc(SCCCN(C)C)cc2F)c(Cl)nc2ncnn12)C(F)(F)F | > 15 |
